A selection: hits, their analogues and other compounds. The true share with any hit is near 2.2%.
Nrf2 inh: blocks Nrf2 signaling; A549 ARE-Fluc reporter, luciferase luminescence, 18-24 h; Potency, µM (top dose mostly 46 µM), for inactives: top-dose activity change, negative = inhibition, hits mostly inhibitors; 360,000 compounds, 2.1% hits; AID 504444; also: potency is read from the fitted curve at half-maximal effect; % is scaled to controls: 0 for no effect and ±100 for the full control effect; nearly all actives have a fitted effect of over 60% in size
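A549 ARE_Fluc cells (5000/well, 5% FBS OPTI-MEM) pre-incubated 2 h, then treated with compounds 18-24 h at 37C/5% CO2 in concentration-response. CellTiter-Fluor viability read first; BugLite luciferase luminescence after 15 min at room temperature gives Nrf2 activity.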
Nrf2 activator: activates Nrf2 signaling; AID 624171; Potency, µM (series often up to 46.1 µM), for the others: top-dose activation, usual class: activators; 410,000 compounds, 0.31% hits; AREc32 ARE-luciferase reporter (MCF7-derived line), luminescence, 24 h; also: potency is read from the fitted curve at half-maximal effect; % of control where 0% means no effect; nearly all actives have a fitted effect of over 65% in size
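AREc32_Fluc, 1000 cells/well, OPTI-MEM + 5% FBS, o/n 37 deg C 5% CO2; 23 nL cpd by pin tool, 24 hr; Steady-Glo 30 min RT, luminescence.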
miR-21 reporter: raises the signal of a miR-21 reporter; AID 2288; 340,000 tested, under 10 active; Potency, µM (doses to about 38.3 µM), inactives show at the top dose reporter change, positive = more light; HeLa miR-21 FLuc reporter, luciferase, 48 h; active = well fitted rising curve with a large enough effect; inconclusive = small, poorly fitted or top-dose-only effect; inactive = no such curve, though single readings can be large or run the other way;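 note: % of control where 0% means no effect; miR-21 action dims this reporter so a rising signal means less miR-21 action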
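HeLa cells stably expressing CMV-driven firefly luciferase with a downstream miR-21 binding sequence, endogenously expressing miR-21, were treated with titrations (up to about 40uM final) for 48 hours at 37 degree Celsius. Luciferase luminescence was read after lysis.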
A549 tox-1: kills or reduces viability of A549 cells in Nrf2 counter-screen. A549 ARE-Fluc cells, CellTiter-Fluor viability, 18-24 h. Potency, µM (titrated, usually from 46 µM), for inactives: at the highest dose activity change, negative = cytotoxicity, hits mostly inhibitors. 390,000 compounds, 0.16% hits. AID 504648; also: potency is read from the fitted curve at half-maximal effect; % is scaled to controls: 0 for no effect and ±100 for the full control effect
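A549 ARE-Fluc cells in 5% FBS OPTI-MEM, 5000 cells/well, rested 2 h then exposed to compounds in concentration-response for 18-24 h at 37 °C. Viability by CellTiter-Fluor fluorescence (Ex 405/Em 525) after 30 min; luciferase luminescence (BugLite, 15 min, RT) read afterwards.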
B2AR arrestin: agonists driving beta-arrestin recruitment to human beta2-adrenergic receptor; P07550; 330,000 compounds, 0.02% hits; Potency, µM (doses to about 46.1 µM), for the others: at the top dose activation, hits mostly activators; AID 492947; beta-arrestin recruitment to beta2AR, cell-based reporter;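 also: potency is read from the fitted curve at half-maximal effect; 0% = DMSO controls and full agonism = EC100 isoproterenol or metaproterenol; nearly all actives have a fitted effect of over 65% in size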
FLuc counter 3: blocks purified firefly luciferase in Nrf2 counterscreen; Potency, µM (top dose mostly 57.5 µM), for inactives: at the top dose activity change, negative = inhibition, hits mostly inhibitors; purified firefly luciferase, luminescence inhibition; AID 720522; 1,400 compounds, 4% hits; shares compounds with Nrf2 inh; also: potency is read from the fitted curve at half-maximal effect; % is scaled to controls: 0 for no effect and ±100 for the full control effect; nearly all actives have a fitted effect of over 65% in size
A549 tox-2: toxic to A549 ARE-Fluc cells in Nrf2 counterscreen; shares compounds with Nrf2 inh; A549 ARE-Fluc cells, cytotoxicity counterscreen; Potency, µM (highest dose often 46.1 µM), for the others: at the highest dose activity change, negative = cytotoxicity, most hits filed as inhibitors; 1,400 compounds, 2% hits; AID 720523;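 also: potency is read from the fitted curve at half-maximal effect; cells exposed to compounds for 18 to 24 hours; % is scaled to controls: 0 for no effect and ±100 for the full control effect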
ARE-Fluc inh: confirmation of Nrf2 inhibitors in A549 ARE reporter cells; shares compounds with Nrf2 inh; A549 ARE-firefly luciferase reporter, luminescence; Potency, µM (doses to about 46.1 µM), without a hit: top-dose activity change, negative = inhibition, most hits filed as inhibitors; 1,400 compounds, 74% hits; also: potency is read from the fitted curve at half-maximal effect; % is scaled to controls: 0 for no effect and ±100 for the full control effect; nearly all actives have a fitted effect of over 65% in size
The depositor's hits bear a star; u = inconclusive; x = no result shown; [ ] = dose if it differs, or a comment. Unless noted, calls follow the shape of the dose curve; as a rule, active = well fitted curve in the direction sought with a large enough effect; inconclusive = small, poorly fitted or top-dose-only effect, or another doubt; inactive = no such curve, though single readings can be large; an effect the other way counts as inactive or inconclusive.

Assay codes – A = Nrf2 inh; B = Nrf2 activator; C = miR-21 reporter; D = A549 tox-1; E = B2AR arrestin; F = FLuc counter 3; G = A549 tox-2; H = ARE-Fluc inh
(1) C[C@]12C=CC(=O)C=C1CC[C@@H]1[C@@H]2[C@@H](O)C[C@@]2(C)[C@H]1CC[C@]2(O)C(=O)COC(=O)CCC(=O)NCCc1ccc(O)cc1
  A = 0.12µM* | B = -1% | C = -38% | D = 0% | E = -1% | F = 0% | G = 8.2µM* | H = 5.8µM*

(2) C[C@]12C=CC(=O)C=C1CC[C@@H]1[C@@H]2[C@@H](O)C[C@@]2(C)[C@H]1CC[C@]2(O)C(=O)CO
  A = 0.058µM* | B = 0% | C = -24% | D = -11% | E = -1% | F = 3% | G = -2% | H = 0.073µM*

(3) C[C@H]1C[C@@H]2[C@H]([C@@H](O)C[C@@]3(C)[C@H]2CC[C@]3(O)C(=O)CO)[C@@]2(C)C=CC(=O)C=C12
  A = 0.026µM* | B = -1% | C = -37% | D = -3% | E = 0% | F = 0% | G = -3% | H = 0.033µM*

(4) C[C@]12C=CC(=O)C=C1CC[C@@H]1[C@@H]2[C@@H](O)C[C@@]2(C)[C@H]1CC[C@]2(O)C(=O)COC(=O)CCC(=O)O
  A = 0.046µM* | B = 0% | C = -34% | D = -16% | E = 0% | F = 5% | G = -5% | H = 0.23µM*

(5) COc1ccc(-c2onc(C)c2C)cc1S(=O)(=O)Nc1cccc(C#N)c1
  A = u | B = 0% | C = 24% | D = 0% | E = x | F = x | G = x | H = x

(6) CCOc1ccc(C(=O)N2CC(=O)Nc3ccc(C)cc3C2c2ccc(F)cc2)cc1OCC (centres undefined)
  A = 7%[9.27 µM] | B = -1% | C = 3% | D = -7% | E = x | F = x | G = x | H = x

(7) CCOC(=O)O[C@]1(C(=O)COC(=O)CC)CC[C@H]2[C@@H]3CCC4=CC(=O)C=C[C@]4(C)[C@H]3[C@@H](O)C[C@@]21C
  A = 0.058µM* | B = 6% | C = x | D = -5% | E = 0% | F = -1% | G = -10% | H = 0.058µM*

(8) CC(=O)OCC(=O)[C@@]1(O)CC[C@H]2[C@@H]3CCC4=CC(=O)C=C[C@]4(C)[C@H]3C(=O)C[C@@]21C
  A = u | B = 0% | C = -9% | D = 0% | E = 0% | F = x | G = x | H = x

(9) Cc1ccccc1CNC(=O)CCCn1c(=O)c2cccn2c2ccccc21
  A = 11% | B = 2% | C = 0% | D = 10% | E = x | F = x | G = x | H = x

(10) C[n+]1ccccc1/C=C/c1ccc(F)c(F)c1
  A = -14% | B = 0%[9.22 µM] | C = 1% | D = 6% | E = 0% | F = x | G = x | H = x

(11) C[n+]1ccc(/C=C/c2c[nH]c3ccc(F)cc23)cc1
  A = 1.2µM* | B = 2% | C = 26% | D = u | E = 0% | F = 1% | G = u | H = 1.8µM*

(12) Cn1cc(/C=C/c2cc[n+](C)cc2)c2cc(F)ccc21
  A = 1.6µM* | B = 8% | C = u | D = u | E = -1% | F = 1% | G = -26% | H = 1.6µM*

(13) CCOC(=O)CNC(=O)c1cc2c(=O)oc3ccccc3c2s1
  A = 5%[9.27 µM] | B = 0% | C = -2% | D = -4% | E = x | F = x | G = x | H = x

(14) Cc1cc(O)c2c(c1O)C(=O)[C@]13C(=C2O)C(=O)[C@@H]2[C@@H](O)[C@H]1[C@@H]1[C@H](O)[C@H]3C(=O)C3=C(O)c4c(O)cc(C)c(O)c4C(=O)[C@]312
  A = 0.37µM* | B = 5% | C = x | D = u | E = -1% | F = u | G = u | H = 1.2µM*

(15) CCc1ccc(OCc2nc(-c3ccc(-n4cccc4)cc3)no2)cc1
  A = u | B = 0% | C = -6% | D = -3% | E = x | F = x | G = x | H = x

(16) CCc1ccc(OC(C)c2nc(-c3ccc(-n4cccc4)cc3)no2)cc1 (centres undefined)
  A = 8.2µM* | B = 0% | C = -4% | D = 9% | E = x | F = 1% | G = 3% | H = 8.2µM*

(17) CCOc1ccc(-c2cc(NC(=O)Nc3ccccc3Cl)c(C(=O)OC)s2)cc1
  A = u | B = 1% | C = -63% | D = 6% | E = x | F = x | G = x | H = x

(18) Cc1nc2ccc(NC(=O)c3cc(S(=O)(=O)N(C)c4ccccc4)ccc3Cl)cc2s1
  A = 5.2µM* | B = 3% | C = 19% | D = -9% | E = -1% | F = 0% | G = 3% | H = u

(19) Cc1nc2ccc(NC(=O)c3ccc(Cl)c(S(=O)(=O)N(C)c4ccccc4)c3)cc2s1
  A = 3.3µM* | B = -1% | C = u | D = -23% | E = -1% | F = -16% | G = -15% | H = u

(20) Cc1nc2ccc(NC(=O)c3ccc(S(=O)(=O)N(C)C)cc3)cc2s1
  A = u | B = 0% | C = -1% | D = 1% | E = 0% | F = x | G = x | H = x

(21) COc1cc2c(cc1OC)CN(C(=O)CN1CCN(S(=O)(=O)c3ccccc3Br)CC1)CC2
  A = 1.8µM* | B = -1% | C = 7% | D = -7% | E = 0% | F = 3% | G = -16% | H = -5%

(22) Nc1nc(Cl)nc2c1ncn2[C@H]1C[C@H](O)[C@@H](CO)O1
  A = 0.013µM* | B = 0% | C = 1% | D = 2% | E = 2% | F = -11% | G = 1% | H = 5.8µM*

(23) CC(=O)c1c(C)n(CC(=O)NCc2ccc3c(c2)OCO3)c2ccccc12
  A = 5.8µM* | B = 1% | C = 16% | D = -5% | E = 0% | F = 1% | G = 11% | H = u

(24) Cc1ccc(NC(=O)CSc2nc3ccccc3c3nc(CCn4c(C)nc5ccccc54)nn23)cc1F
  A = x | B = 0% | C = 1% | D = -17% | E = x | F = x | G = x | H = x

(25) CCN(CC)c1ccc(Nc2nc(N3CCOCC3)c3ccccc3n2)cc1
  A = 6.5µM* | B = 3% | C = 29% | D = u | E = -1% | F = u | G = -11% | H = 12µM*

(26) COc1ccc(Nc2nc(N3CCCC3)c3ccccc3n2)cc1
  A = u | B = -2% | C = 29% | D = -16% | E = 0% | F = x | G = x | H = x

(27) O=C1C=CCC(/C=C/c2ccccc2)O1 (centres undefined)
  A = 2.6µM* | B = 6% | C = 24% | D = -16% | E = -1% | F = -9% | G = u | H = 1.3µM*

(28) CCC1([N+](=O)[O-])COC(C=Cc2ccccc2)OC1 (centres undefined)
  A = u | B = 4% | C = x | D = 2% | E = x | F = x | G = x | H = x

(29) CCN(CC)c1ccc(/C=C/c2ccncc2)cc1
  A = x | B = x | C = x | D = x | E = x | F = -14% | G = 6.5µM* | H = 1.5µM*

(30) CN(C)c1ccc(/C=C/c2ccncc2)cc1
  A = 2% | B = 5% | C = -50% | D = -17% | E = 0% | F = x | G = x | H = x

Shown with each value named: 2 of the compounds above.
[29] CCN(CC)c1ccc(/C=C/c2ccncc2)cc1
- Nrf2 inh: x
- Nrf2 activator: x
- miR-21 reporter: x
- A549 tox-1: x
- B2AR arrestin: x
- FLuc counter 3: -14%
- A549 tox-2: 6.5µM*
- ARE-Fluc inh: 1.5µM*
[30] CN(C)c1ccc(/C=C/c2ccncc2)cc1
- Nrf2 inh: 2%
- Nrf2 activator: 5%
- miR-21 reporter: -50%
- A549 tox-1: -17%
- B2AR arrestin: 0%
- FLuc counter 3: x
- A549 tox-2: x
- ARE-Fluc inh: x

Further structures follow:
Assay codes – A = Nrf2 inh; B = Nrf2 activator; C = miR-21 reporter; D = A549 tox-1; E = B2AR arrestin; F = FLuc counter 3; G = A549 tox-2; H = ARE-Fluc inh
(31) c1ccc(C[n+]2cccc3c4ccccc4ccc32)cc1
  A = u | B = 0% | C = 28% | D = u | E = -1% | F = 0% | G = -11% | H = x

(32) CC12Cc3ccc4ccccc4c3C=C1C[N+](C)(C)C2 (centres undefined)
  A = 1.3µM* | B = -1% | C = 7% | D = -19% | E = 0% | F = 0% | G = -7% | H = 18µM*

(33) NC(=S)N/N=C/c1ncc(C(F)(F)F)cc1Cl
  A = 4.1µM* | B = 10% | C = 24% | D = u | E = u | F = -1% | G = u | H = 5.2µM*

(34) O=C(Nc1nonc1NC(=O)c1cccs1)c1cccs1
  A = 1.6µM* | B = 7% | C = 26% | D = u | E = 0% | F = -15% | G = -12% | H = 6.5µM*

(35) CCOC(=O)N1CCC(Nc2cc(C)nc3c(-c4ccccc4OC)c(C)nn23)CC1
  A = 9.2µM* | B = 3% | C = 16% | D = 24% | E = 0% | F = -1% | G = -25% | H = 12µM*

Compound activity as filed in PubChem BioAssay.
